Values of other authors, collected in patent US5952189A (priority 1997, dated 1999).

Test system: serine protease in T lymphocyte apoptosis
Details: Sarin et al. 1993; cited from earlier work

O=S(=O)(F)Cc1ccccc1 [PMSF, phenylmethylsulfonylfluoride]
Inhibition of serine protease in T lymphocyte apoptosis: inhibited
